The results in this text go back to PubChem BioAssay (EPA / NIEHS).

Amino acid sequences for entries named in this document (tags omitted). A change or cut given only in a name is not applied to a line headed by its entry.
UniProt Q07869: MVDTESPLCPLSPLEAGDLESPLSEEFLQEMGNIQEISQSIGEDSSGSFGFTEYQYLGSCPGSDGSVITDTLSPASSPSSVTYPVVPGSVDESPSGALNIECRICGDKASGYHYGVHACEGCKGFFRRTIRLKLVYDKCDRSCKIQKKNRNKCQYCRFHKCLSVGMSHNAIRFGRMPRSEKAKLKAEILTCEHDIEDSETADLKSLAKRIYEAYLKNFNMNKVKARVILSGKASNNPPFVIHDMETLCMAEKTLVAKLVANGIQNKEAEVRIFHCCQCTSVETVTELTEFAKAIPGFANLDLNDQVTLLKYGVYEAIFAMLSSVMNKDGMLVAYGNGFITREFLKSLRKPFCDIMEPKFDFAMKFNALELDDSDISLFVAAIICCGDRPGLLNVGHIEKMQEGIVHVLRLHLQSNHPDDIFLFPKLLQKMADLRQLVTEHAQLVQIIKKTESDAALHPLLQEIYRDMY
UniProt P33261, whole entry, looked up: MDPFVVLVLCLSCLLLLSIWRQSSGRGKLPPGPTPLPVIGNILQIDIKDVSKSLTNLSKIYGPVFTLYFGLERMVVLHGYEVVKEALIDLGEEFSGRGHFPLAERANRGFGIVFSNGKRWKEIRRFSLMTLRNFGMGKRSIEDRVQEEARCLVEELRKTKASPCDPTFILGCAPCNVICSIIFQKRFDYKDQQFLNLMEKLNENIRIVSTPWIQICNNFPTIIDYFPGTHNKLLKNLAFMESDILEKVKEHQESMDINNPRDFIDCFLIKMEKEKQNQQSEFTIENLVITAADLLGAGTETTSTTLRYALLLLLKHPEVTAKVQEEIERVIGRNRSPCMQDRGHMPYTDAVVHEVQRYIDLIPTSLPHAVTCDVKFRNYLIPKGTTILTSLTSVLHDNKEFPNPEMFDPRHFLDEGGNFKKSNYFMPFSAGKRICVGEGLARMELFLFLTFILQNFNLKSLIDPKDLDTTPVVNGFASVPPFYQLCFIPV
UniProt P08588, whole entry, looked up: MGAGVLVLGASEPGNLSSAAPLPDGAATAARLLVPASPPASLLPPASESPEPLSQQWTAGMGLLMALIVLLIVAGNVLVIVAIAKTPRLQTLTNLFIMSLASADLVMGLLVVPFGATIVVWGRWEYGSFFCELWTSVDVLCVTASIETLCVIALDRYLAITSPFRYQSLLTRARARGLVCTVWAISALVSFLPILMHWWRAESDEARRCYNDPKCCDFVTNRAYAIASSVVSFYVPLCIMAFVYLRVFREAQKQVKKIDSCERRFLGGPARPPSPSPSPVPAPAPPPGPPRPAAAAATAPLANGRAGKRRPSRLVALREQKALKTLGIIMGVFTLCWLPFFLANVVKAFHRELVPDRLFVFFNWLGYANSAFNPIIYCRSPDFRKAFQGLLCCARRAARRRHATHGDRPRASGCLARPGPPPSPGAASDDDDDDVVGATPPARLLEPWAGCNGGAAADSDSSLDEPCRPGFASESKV
UniProt P03372, whole entry, looked up: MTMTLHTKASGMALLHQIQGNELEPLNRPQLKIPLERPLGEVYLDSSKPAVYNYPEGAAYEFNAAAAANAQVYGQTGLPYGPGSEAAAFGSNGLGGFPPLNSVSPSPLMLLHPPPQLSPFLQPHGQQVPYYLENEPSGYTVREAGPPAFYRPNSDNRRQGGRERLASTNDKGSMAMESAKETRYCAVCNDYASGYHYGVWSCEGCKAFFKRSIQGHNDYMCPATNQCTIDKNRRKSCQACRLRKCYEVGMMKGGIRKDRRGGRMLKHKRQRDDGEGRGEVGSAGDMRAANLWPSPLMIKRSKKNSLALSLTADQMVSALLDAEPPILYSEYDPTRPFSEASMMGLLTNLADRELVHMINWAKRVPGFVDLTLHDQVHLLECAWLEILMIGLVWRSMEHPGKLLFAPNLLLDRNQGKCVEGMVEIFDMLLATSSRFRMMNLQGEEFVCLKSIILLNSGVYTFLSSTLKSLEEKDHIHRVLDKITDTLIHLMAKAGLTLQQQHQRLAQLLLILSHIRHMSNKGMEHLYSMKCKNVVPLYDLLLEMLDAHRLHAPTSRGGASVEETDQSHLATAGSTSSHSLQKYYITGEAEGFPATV
UniProt Q92731, whole entry, looked up: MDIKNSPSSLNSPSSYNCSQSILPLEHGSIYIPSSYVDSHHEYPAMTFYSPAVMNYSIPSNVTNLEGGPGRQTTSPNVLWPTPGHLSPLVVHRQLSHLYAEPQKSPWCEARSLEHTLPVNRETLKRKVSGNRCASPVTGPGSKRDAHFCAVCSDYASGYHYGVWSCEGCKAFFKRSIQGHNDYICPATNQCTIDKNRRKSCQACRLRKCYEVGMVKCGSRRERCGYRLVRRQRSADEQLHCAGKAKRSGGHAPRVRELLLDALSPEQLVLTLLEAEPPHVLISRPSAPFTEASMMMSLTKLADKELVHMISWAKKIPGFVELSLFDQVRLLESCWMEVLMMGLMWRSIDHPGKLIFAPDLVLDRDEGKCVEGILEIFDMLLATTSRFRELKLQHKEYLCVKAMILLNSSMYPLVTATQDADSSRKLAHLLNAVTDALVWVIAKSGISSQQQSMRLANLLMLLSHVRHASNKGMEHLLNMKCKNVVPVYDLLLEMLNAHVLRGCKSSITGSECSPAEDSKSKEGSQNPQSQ
UniProt Q96RI1: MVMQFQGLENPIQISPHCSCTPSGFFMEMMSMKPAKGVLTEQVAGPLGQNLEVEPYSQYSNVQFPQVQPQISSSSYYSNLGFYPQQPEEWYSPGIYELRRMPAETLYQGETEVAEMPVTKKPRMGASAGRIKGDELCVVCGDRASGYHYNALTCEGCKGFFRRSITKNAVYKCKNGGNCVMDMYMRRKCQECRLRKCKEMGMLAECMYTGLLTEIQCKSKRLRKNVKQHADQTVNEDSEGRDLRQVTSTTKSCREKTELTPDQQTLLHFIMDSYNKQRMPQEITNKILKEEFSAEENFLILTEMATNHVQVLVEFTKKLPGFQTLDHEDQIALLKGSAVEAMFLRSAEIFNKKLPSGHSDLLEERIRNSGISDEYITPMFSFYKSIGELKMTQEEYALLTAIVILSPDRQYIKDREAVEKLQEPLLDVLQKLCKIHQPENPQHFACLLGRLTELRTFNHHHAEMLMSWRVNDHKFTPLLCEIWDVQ

For part of these data: Shown are results outside the selection of hits, which stands elsewhere. Records with an inconclusive call do not appear. Only a part is listed here, and it is no random draw. Activity calls are given as the source filed them. The calls were made as follows, unless noted: active = hit-call score of the fitted dose curve at least 0.9, where 1 is the maximum; inconclusive = response in the unintended direction; inactive = score below 0.9.

Experiment [1] is described as follows: ATG_RORE_CIS: Attagene CIS-FACTORIAL HepG2 Assay for human RAR-related Orphan Receptor Element (RORE) (AID 2282959; active = hit-call score of the fitted dose curve at least 0.9, where 1 is the maximum; inactive = score below 0.9). As to conditions: HepG2 Attagene cis-factorial RORE reporter, mRNA; actives raise or lower the signal.
In experiment [2] the target is human Peroxisome Proliferator-activated Receptor alpha (PPARa), PPARA (gene 5465) (UniProt Q07869). The experiment is described as follows: ATG_PPARa_TRANS: Attagene TRANS-FACTORIAL HepG2 Assay for human Peroxisome Proliferator-activated Receptor alpha (PPARa) (AID 2283001).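 Also: potency for gain of reporter signal over DMSO so agonist or activator.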 In a few lines:
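HepG2, transient MRTU transfection, 24 h treatment. RT-PCR → FAM labelling → capillary electrophoresis. Fit vs DMSO, positive direction.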

Experiment [3] has the same target. The experiment is described as follows: NVS_NR_hPPARa: NovaScreen (NVS) Nuclear Receptor Binding Assay for human Peroxisome Proliferator-activated Receptor alpha (PPARa) (AID 2283359).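 Also: activity means loss of TR-FRET signal versus DMSO baseline.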 In a few lines:
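TR-FRET signal measured at 1 h post-dosing; loss-of-signal versus DMSO negative control taken as activity. Extracted gene-protein, cell-free format. Initial single-point duplicates at 25 uM, then concentration-response retests.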

Experiment [4] concerns the target Cytochrome P450 2C19 (Homo sapiens) (UniProt P33261). The experiment is described as follows: NVS_ADME_hCYP2C19: NovaScreen (NVS) CYP450-related Enzyme Activity (ADME) Assay for human CYP2C19 (AID 2283113).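 Also: potency for inhibition seen as loss of fluorescent signal.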 In a few lines:
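Chemicals first screened in duplicate at 10 uM against recombinant human enzyme produced in insect cells; confirmed actives then run as concentration series. Fluorogenic substrate turnover read by fluorescence after 1 h, normalised to acetonitrile.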

For experiment [5], the target named is human Adrenergic, Beta 1 Receptor (Adrb1), ADRB1 (gene 153) (UniProt P08588). In words: NVS_GPCR_hAdrb1: NovaScreen (NVS) G Protein-Coupled Receptor Assay for human Adrenergic, Beta 1 Receptor (Adrb1) (AID 2283258). In short, it runs like this:
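Membranes/protein extracted from human neuroepithelioma cells, radioligand competition binding read by filtration and scintillation 2 h post-dose. Single 25 uM duplicate screen, then concentration-response follow-up; DMSO as negative control.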

For experiment [6], the target named is Beta-2 adrenergic receptor (Homo sapiens) (UniProt P07550). In words: NVS_GPCR_hAdrb2: NovaScreen (NVS) G Protein-Coupled Receptor Assay for human Adrenergic, Beta 2 Receptor (Adrb2) (AID 2283261). In short, it runs like this:
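Compounds screened in duplicate at 25 uM, then actives in concentration series. Human beta-2 receptor from CHO material, cell-free; radioligand displacement after 1 h measured by filtration and scintillation against DMSO baseline.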

The target in experiment [7] is T1, Estrogen receptor (Homo sapiens) + Estrogen receptor beta (Homo sapiens) (UniProt P03372+Q92731). The experiment is described as follows: OT_ER_ERaERb_0480: Odyssey Thera (OT) 8-hour HEK293T Protein-Complementation Assay for Estrogen Receptor-alpha/-beta Heterodimer (AID 2283352). In short, it runs like this:
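Increase in mean fluorescence intensity, measured by laser scanning plate cytometry, reported ER-alpha/ER-beta LBD complementation in HEK293T cells after 8 h chemical exposure. DMSO served as baseline; basal signal is low, punctate and cytoplasmic.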

For experiment [8], the target named is T1, Estrogen receptor (Homo sapiens) + Estrogen receptor beta (Homo sapiens). In words: OT_ER_ERaERb_1440: Odyssey Thera (OT) 24-hour HEK293T Protein-Complementation Assay for Estrogen Receptor-alpha/-beta Homodimer (AID 2283356).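 Also: heteromer of ER alpha and ER beta binding domains; hits raise reporter fluorescence and both agonists and antagonists give an increase.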 In short, it runs like this:
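Heterodimerisation of ERα (aa 310-547) and ERβ (aa 263-489) ligand binding domains was tracked as fluorescence gain in stably transfected HEK293T cells following 24 h dosing, normalised to DMSO controls.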

In experiment [9] the target is Bile acid receptor (Homo sapiens) (UniProt Q96RI1). The experiment is described as follows: OT_FXR_FXRSRC1_0480: Odyssey Thera (OT) 8-hour HEK293T Protein-Complementation Assay for Farnesoid X receptor/SRC-1 Co-activator (AID 2283383). In short, it runs like this: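 PCA, HEK293T, 8 h compound exposure; FXR–SRC-1 binding reconstitutes split reporter; fluorescence intensity; positive-direction fit vs DMSO.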

For experiment [10] the target is unchanged. In words: OT_FXR_FXRSRC1_1440: Odyssey Thera (OT) 24-hour HEK293T Protein-Complementation Assay for Farnesoid X receptor/SRC-1 Co-activator (AID 2283384). In short, it runs like this:
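Measures ligand-driven FXR–SRC-1 co-activator recruitment in HEK293T via fragment complementation, fluorescence intensity at 24 h. DMSO served as negative control and baseline for gain-of-signal fitting.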

Experiment [11] can be described thus: TOX21_p53_BLA_p2_viability: Viability Assessment in the Tox21 HCT-116 p53 Agonism Beta-lactamase Assay, Phase 2 (AID 2283591).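 Also: compound exposure lasted 16 h at 37 °C; actives lower the ATP signal meaning cytotoxicity.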 In short, it runs like this: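 HCT116 p53-bla cells, 4000/well, dosed after 5 h plating (217-fold dilution of DMSO stocks) and incubated 16 h at 37C. Viability taken as cellular ATP by CellTiter-Glo luminescence after 30 min RT; signal loss marks cytotoxicity.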

Experiment [12] is described as follows: TOX21_p53_BLA_p5_viability: Viability Assessment in the Tox21 HCT-116 p53 Agonism Beta-lactamase Assay, Phase 5 (AID 2283600). In a few lines: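 Viability is taken from cellular ATP content, measured by luciferase luminescence in the same wells after the beta-lactamase ratio read. Cells are seeded at 4000 per well and exposed to DMSO-dissolved compounds, diluted 217-fold, for 16 h.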

Experiment [13] can be described thus: TOX21_PR_BLA_Followup_Agonist_viability: Viability Assessment in the Tox21 HEK293 Progesterone Receptor (PR) Agonism Beta-lactamase Follow-Up Assay (AID 2283935).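 Also: signal loss means lower viability so actives are cytotoxic.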 In short, it runs like this:
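Cells were plated in medium with 2% charcoal-stripped FBS and rested 6 hr. Compounds in DMSO were then added for 16 hr at 37C, followed by the FRET substrate step and CellTiter-Glo luminescence after 30 min.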

Experiment [14] can be described thus: TOX21_PR_BLA_Followup_Antagonist_viability: Viability Assessment in the Tox21 HEK293 Progesterone Receptor (PR) Antagonism Beta-lactamase Follow-Up Assay (AID 2283936).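 Also: cells exposed to compound with R5020 agonist for 16 h; hits lower the luminescence signal meaning cytotoxicity.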 In short, it runs like this: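 PR-UAS-bla HEK293T cells in medium with 2% charcoal-stripped FBS were treated with compounds plus R5020 for 16 hr at 37C. After the beta-lactamase read, CellTiter-Glo was added to the same wells and luminescence read after 30 min at room temperature.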

A short description of experiment [15]: TOX21_TR_RXR_BLA_Antagonist_Followup_viability: Viability Assessment in the Tox21 Thyroid Hormone Receptor beta Retinoid X Receptor alpha (RXRa) Antagonism Beta-lactamase (BLA) Follow-Up Assay (AID 2283979). In a few lines: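 RXRa-bla HEK293T cells (2,500/well, phenol red-free DMEM, 2% charcoal-stripped FBS) were attached 5 h, then exposed to compounds at 11 concentrations in triplicate for 16 h at 37C. Viability measured by CellTiter-Glo ATP luminescence, bidirectional fitting versus DMSO.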

As for `COC(=O)c1ccc(O)cc1`, the outcome in [1] was inactive.
Still for that read-out and setting: the same measure for `Cc1ccc(N(C)C)cc1`: “inactive”; for `CC(CCO)CCc1ccccc1` (stereo unspecified): “inactive”.
Still for that read-out and setting: the same measure for `Cc1ccc(S(=O)(=O)O)cc1C`: “inactive”; for `CC(=O)c1ccccc1`: “inactive”.
Same read-out and setting: the same measure for `Nc1ccc(S(=O)(=O)O)c(N)c1`: “inactive”; for `COC(=O)c1ccc([N+](=O)[O-])cc1`: “inactive”; for `NC(=O)Nc1ccc(Cl)cc1`: “inactive”.
On to `CC(C)(c1cc(Br)c(OCCO)c(Br)c1)c1cc(Br)c(OCCO)c(Br)c1`, for which, in [1], the compound was classed as inactive.
Regarding `CC1=CC[C@@H](C(C)(C)O)CC1`, the compound was called inactive in experiment [1].
Still for that read-out and setting: the same measure for `CCOC(=O)c1ccccc1OC`: “inactive”; for `CCCCCCCCOC(=O)c1ccc(O)cc1`: “inactive”.
On the same count and under the same terms, the same measure for `C1COCO1`: “inactive”; for `CC(C)(CO)COC(=O)C(C)(C)CO`: “inactive”.
On to `ON(Cc1ccccc1)Cc1ccccc1`, for which the compound was classed as inactive in experiment [1].
In the case of `CCCCCCCC/C=C\CCCCCCCC(=O)OCC`, the compound was called inactive in experiment [1].
Regarding `Cc1oc(-c2ccccc2)nc1CCOc1ccc(C[C@H](Nc2ccccc2C(=O)c2ccccc2)C(=O)O)cc1`, the concentration at half-maximal activity (AC50) in experiment [2] was active: 369 nM; in experiment [3], active: 22.6 nM.
Consider `OC(Cn1cncn1)(Cn1cncn1)c1ccc(F)cc1F`, for which, in experiment [4], the half-maximal activity concentration (AC50) was active: 1520 nM.
On the same count and under the same terms, the same measure for `CCN(CC)C(=S)SSC(=S)N(CC)CC`: active: 1200 nM.
On to `CCc1c(C(=O)NN2CCCCC2)nn(-c2ccc(Cl)cc2Cl)c1-c1ccc(Br)cc1`, for which the AC50 in experiment [5] is active: 3300 nM; in experiment [6], active: 6640 nM.
Consider `[O-]/[N+](=N\O)c1ccccc1`, for which the result in [7] and in experiment [8] was inactive.
In the case of `CC(CO)OC(C)CO` (stereo unspecified) (tested in a mixture with another compound), the result in experiment [7] and in [8] was inactive.
On to `COCCOc1cc2cc(C(=O)NC3CCN(C(C)C)CC3)n(CC(=O)Nc3ccc(Cl)cn3)c2cn1`, for which the result in experiment [9] and in [10] was inactive.
In the case of `N=C(N)c1ccc(OCCCCCOc2ccc(C(=N)N)cc2)cc1`, the call in experiment [9] was inactive. The AC50 in [10] is active: 52200 nM.
Consider `C[C@@H]1O[C@@H]1P(=O)(O)O`, for which, in [11], the compound was called inactive.
On the same count and under the same terms, the same measure for `CNC[C@@H]1CC[C@@H](N)[C@@H](O[C@H]2[C@H](O)[C@@H](O[C@H]3OC[C@](C)(O)[C@H](NC)[C@H]3O)[C@H](N)C[C@@H]2N)O1`: “inactive”.
Take `Nc1ccc(N)c(Cl)c1`: the compound was classed as inactive in [12].
Regarding `C[C@]12CC[C@@H]3c4ccc(O)cc4C[C@@H](CCCCCCCCCS(=O)CCCC(F)(F)C(F)(F)F)[C@H]3[C@@H]1CC[C@@H]2O` (stereo partly specified), the outcome in experiment [13] and in experiment [14] was inactive.
Consider `C#C[C@]1(O)CC[C@H]2[C@@H]3CCC4=CC(=O)CC[C@@H]4[C@H]3C(=C)C[C@@]21CC`, for which, in [15], the compound was called inactive.
